# Results as given in PubChem BioAssay AID504634 (The Scripps Research Institute Molecular Screening Center, 2011).
# Amino acid sequences for entries named in this document (tags omitted).
# UniProt P47898, whole entry, looked up: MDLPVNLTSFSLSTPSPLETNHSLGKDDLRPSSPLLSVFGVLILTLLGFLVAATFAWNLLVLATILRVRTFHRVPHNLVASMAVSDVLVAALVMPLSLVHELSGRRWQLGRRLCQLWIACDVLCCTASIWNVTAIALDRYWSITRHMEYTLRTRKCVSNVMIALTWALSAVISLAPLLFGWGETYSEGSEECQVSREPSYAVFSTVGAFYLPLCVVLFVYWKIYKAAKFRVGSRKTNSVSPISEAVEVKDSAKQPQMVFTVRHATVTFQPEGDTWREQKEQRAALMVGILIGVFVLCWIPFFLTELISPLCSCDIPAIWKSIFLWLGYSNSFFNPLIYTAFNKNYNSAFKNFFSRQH
# Only a part is listed here, and it is no random draw. The source made the active and inactive calls. Cut-off read from the data, not from the text of the source: active = inhibition mostly above about 23% (no sharp cut-off); inactive = mostly below about 18%.
# Biological target: 5-hydroxytryptamine receptor 5A (Homo sapiens) (UniProt P47898)
# Assay: inverse agonism at human 5-HT5A receptor – cell-based, luminescence, full-deck HTS, counter-screen for OPRM1-OPRD1 heterodimer inverse agonist project, primary screen (AID 504634);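 note: 0% = cells with DMSO and 100% = no-cell wells with DMSO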
# Conditions: HTR5A cell line, at 9.3 µM, hits give high values
row,Structure (SMILES),inhibition
1,O=C(Cn1cnc2c(NC(=O)OCc3ccccc3)ncnc21)NCCN1CCOCC1,inactive: -1.71%
2,CC(C)NC(=O)Cn1c(SCC(=O)NC2CCCC2)nc2ccccc21,inactive: -18.1%
3,N=c1n(CCN2CCCC2)c2ccccc2n1CC(O)c1ccc(Cl)c(Cl)c1 (stereo not given),inactive: -15%
4,COc1ccc2c(c1)C1(Nc3ccccc3-c3nc4ccccc4n31)C(=O)N2C (stereo not given),inactive: 1.5%
5,COc1cccc(NC(=O)[C@H](CC(C)C)NC(=O)N2CCn3c2nc2ccccc23)c1,inactive: -24.6%
6,CC(C)[C@H](NC(=O)N1CCn2c1nc1ccccc12)C(=O)NC1CC1,inactive: -4.05%
7,CCc1ccc(S(=O)(=O)N2c3ccc(C)cc3C3CN(C)CCC32)cc1 (stereo not given),inactive: 14.6%
8,CCc1cccc(C)c1N(C(=O)Cn1c(COC)nc2ccccc21)C(C)COC (stereo not given),inactive: -25.1%
9,O=[N+]([O-])c1ccc2c(c1)nc1n2CCN(c2ccccc2)C1,inactive: 1.94%
10,O=C(c1ccccc1)N1CCn2c(nc3ccccc32)C1,inactive: -16.1%
11,Cc1nc2ccccc2n1CC(=O)N/N=C\c1ccccn1,inactive: -24.9%
12,CC(C)NC(=O)Cn1c(SCC(=O)N2CCCc3ccccc32)nc2ccccc21,inactive: -34.4%
13,Cc1ccc(NC(=O)CCC(=O)N/N=C/C=C/c2ccccc2)cc1,inactive: 10.7%
14,Cc1nc2ccccc2n1CC(=O)NN,inactive: -3.39%
15,O=C(Cn1cnc2c(NC(=O)OCc3ccccc3)ncnc21)NCc1ccccn1,inactive: 9.12%
16,CCc1ccc(NC(=O)Cn2c(SC)nc3ccccc32)cc1,inactive: -7.38%
17,CCC(C)N(CC(C)C)C(=S)SC(NC(C)=O)C(Cl)(Cl)Cl (stereo not given),inactive: 3.64%
18,CC1CC(C)CN(C(=O)Cn2c(SCC(=O)N3CCc4ccccc4C3)nc3ccccc32)C1 (stereo not given),inactive: 6.54%
19,CCN1C(=O)C2(Nc3ccccc3-c3nc4ccccc4n32)c2cc(OC)ccc21 (stereo not given),inactive: 20.4%
20,COc1ccc(N2C(=O)CC(n3cnc4ccccc43)C2=O)cc1 (stereo not given),inactive: -4.06%
21,COc1ccccc1NC(=O)Cn1cnc2c1c(=O)n(C)c(=O)n2C,inactive: -19.8%
22,Cc1ccc2c(c1)[C@@H]1CN(C)CC[C@@H]1N2C(=O)Nc1cccc(C(F)(F)F)c1,inactive: 2.57%
23,CCOC(=O)c1ccccc1NC(=O)CSc1nc2ccccc2n1CC(=O)N1CCCC1,inactive: -19.3%

row,Structure (SMILES),inhibition
1,CSc1nc2ccccc2n1CC(=O)Nc1ccccc1,inactive: -3.57%
2,Cc1nc2ccccc2n1CCN1CCOCC1,inactive: -1.08%
3,Cc1ccc2c(c1)C1CN(C)CCC1N2C(=O)Cc1cccs1 (stereo not given),inactive: -24.2%
4,CN1C(=O)C2(Nc3ccccc3-c3nc4ccccc4n32)c2ccccc21 (stereo not given),inactive: 18.2%
5,CCC(C)[C@H](NC(=O)N1CCn2c1nc1ccccc12)C(=O)NCc1ccccc1 (stereo not given in full),inactive: -2.64%
6,Cc1ccc(NC(=O)Cn2cnc3ccccc32)cc1C,inactive: 9.08%
7,CCN(CC)C(=O)Cn1c(=O)n(Cc2ccccc2Cl)c2c1c(=O)n(C)c(=O)n2C,inactive: 1.65%
8,CCN(CC)CCn1c(NC(=O)c2ccc(C(F)(F)F)cc2)nc2ccccc21,inactive: -7.18%
9,Cn1c(=O)c2c(nc(CN3CCOCC3)n2CCN2CCOCC2)n(C)c1=O,inactive: 6.73%
10,O=S(=O)(Nc1ccc2c(c1)nc1n2CCN(Cc2ccccc2)C1)c1ccc(F)cc1,inactive: -11.2%
11,CC1Cc2ccccc2N1C(=O)Cn1cnc2ccccc21 (stereo not given),inactive: -43.7%
12,C[C@H](O)[C@@H]1C(=O)N2CCc3ccc(N4CCN(C)CC4)cc3[C@@H]2C[C@@H]1N(C)C(=O)c1ccc(C#N)cc1,inactive: 0.51%
13,CSc1nc(N)nc2c1ncn2CC(=O)N1CCN(Cc2c(C)cc(C)cc2C)CC1,inactive: -32.2%
14,COc1cccc(CNc2nc3ccccc3n2CCN2CCCCC2)c1OC,inactive: -29.5%
15,CCC(C)[C@H](NC(=O)N1CCn2c1nc1ccccc12)C(=O)NCC1CCCO1 (stereo not given in full),inactive: 14.7%
16,O=C(OC1CN2CCC1CC2)c1cccc([N+](=O)[O-])c1 (stereo not given),inactive: -0.07%
17,CCCCOc1ccccc1NC(=O)Cn1c(-c2nonc2N)nc2ccccc21,inactive: -13.1%
18,CCc1cccc(C)c1N(C(=O)Cn1c(=O)[nH]c2ccccc21)C(C)COC (stereo not given),inactive: -6.53%
19,COc1ccc(CCNC(=O)[C@H](CC(C)C)NC(=O)N2CCn3c2nc2ccccc23)cc1OC,inactive: -15.1%
20,O=C(c1ccccc1Cl)N1CCn2c1nc1ccccc12,inactive: 9.77%
21,CCC(NC(=O)Cn1cnc2c(=O)n(C)c(=O)n(C)c21)c1ccccc1 (stereo not given),inactive: 5.18%
22,O=C1Cn2c(nc3ccccc32)-c2ccccc2N1,inactive: 11.1%
23,CCN(CC)C(=O)Cn1cnc2c1c(=O)n(C)c(=O)n2C,inactive: -0.88%

row,Structure (SMILES),inhibition
1,CC(C)N(C(=O)Cn1c(Cl)nc2ccccc21)C(C)C,inactive: 3.75%
2,CCOC(=O)c1ccc(NC(=O)C(C)(CCl)SC)cc1 (stereo not given),inactive: -10.7%
3,Cc1ccc2c(c1)C1C[N+](C)(CC(=O)c3ccc(Cl)cc3Cl)CCC1N2C(=O)c1ccc(F)cc1 (stereo not given),inactive: -14.5%
4,O=C(Cn1c(-c2cscn2)nc2ccccc21)Nc1cc(F)ccc1F,inactive: -3.52%
5,Cc1ccc2c(c1)C1CN(C)CCC1N2C(=O)COc1ccc(S(=O)(=O)N2CCOCC2)cc1 (stereo not given),inactive: 17%
6,Cc1ccc(SCc2nc3ccccc3n2CC(=O)Nc2ccc(Cl)cc2)cc1,inactive: 8.82%
7,CN1CCC2(CC1)Nc1nc(SCc3ccc(Cl)cc3)nn1C1=C2CN(C)CC1,inactive: -8.06%
8,Cc1ccc2c(c1)C1CN(C)CCC1N2C(=S)Nc1cccnc1 (stereo not given),inactive: 0.16%
9,N#CCC(=O)N/N=C\c1ccc(OC/C=C/c2ccccc2)cc1,inactive: 0.77%
10,FC(F)(F)c1cccc(-n2nnnc2C2(N3CCOCC3)CCCCC2)c1,inactive: 0.76%
11,CCOCCn1c(=O)c2c(nc3n2CCN3c2ccc(CC)cc2)n(C)c1=O,inactive: -1.36%
12,CC(C)NC(=O)Cn1c(SCC(=O)N2CCc3ccccc3C2)nc2ccccc21,inactive: -8.64%
13,Cc1cc(N2C(=O)CC(N3CCC(n4c(=O)[nH]c5ccccc54)CC3)C2=O)no1 (stereo not given),inactive: -7.78%
14,COc1cc(Cl)c(C)cc1NC(=O)Cn1c(NCCO)nc2ccccc21,inactive: -14.1%
15,Cc1ccc(CNC(=O)CCCCCNC(=O)N2CCn3c2nc2ccccc23)cc1,inactive: 9.54%
16,Brc1cccc(CNc2nc3ccccc3n2CCN2CCOCC2)c1,inactive: 5.24%
17,S=C(Nc1ccccc1)N1CCn2c(nc3ccccc32)C1,inactive: -1.97%
18,C[C@H](O)[C@@H]1C(=O)N2CCc3ccc(N4CCOCC4)cc3[C@@H]2C[C@@H]1N(C)C(=O)C(C)(C)C,inactive: 11.1%
19,O=C(NCCn1c(C(F)(F)F)nc2cc(C(F)(F)F)ccc21)[C@H]1CCCN1c1nc(CN2CCCCC2)cs1,inactive: -16.9%
20,Cc1cc(C)cc(NC(=O)Cn2c(-c3ccccc3Cl)nc3ccccc32)c1,inactive: 13.4%
21,CC(C)(C)C(=O)NC(Sc1ncccn1)C(Cl)(Cl)Cl (stereo not given),inactive: -15.1%
22,CCCC(=O)Nc1nnc(/C=C/c2ccccc2)s1,inactive: -6.84%
23,Cn1c(=O)c2ncn(CC(=O)Nc3cc(C(F)(F)F)ccc3N3CCOCC3)c2n(C)c1=O,inactive: -12.6%

row,Structure (SMILES),inhibition
1,Cn1c(=O)c2c(ncn2CC(=O)Nc2nnc(Cc3ccccc3)s2)n(C)c1=O,inactive: 3.33%
2,COc1ccc(CNC(=O)Cn2cnc3c(SC)nc(N)nc32)cc1,inactive: -8.03%
3,COc1ccc(OCC(O)Cn2c(=N)n(CCN3CCOCC3)c3ccccc32)cc1 (stereo not given),inactive: -3.73%
4,CN(C)CCn1c(NC(=O)c2ccc(Cl)cc2)nc2ccccc21,inactive: -14.5%
5,O=C(Cn1c(C(F)(F)F)nc2ccccc21)Nc1ccccc1C(=O)O,inactive: 10.5%
6,Clc1n[nH]nc1-c1nn[nH][15n]1,inactive: 13.2%
7,COc1ccc(/C=N/NC(=O)Cn2c(Cc3ccc(OC)c(OC)c3)nc3ccccc32)cc1OC,inactive: -5.32%
8,Cc1ccc(CSc2nc3ccncc3n2CC(=O)Nc2cc(C)cc(C)c2)cc1,inactive: 3.47%
9,NNC(=O)Cn1c(-c2nonc2N)nc2ccccc21,inactive: 7.96%
10,CC(C)(C)NC(=O)Cn1c(=O)n(CC(=O)NC(C)(C)C)c2ccccc21,inactive: 9.45%
11,O=C(Cn1c(SCc2ccccc2)nc2ccccc21)N1CCOCC1,inactive: -21%
12,Cn1c(=O)c2c(ncn2CC(=O)N2CCN(c3ccc(F)cc3)CC2)n(C)c1=O,inactive: -5.79%
13,CCCCNC(=O)CC1C(=O)N(Cc2ccccc2)C(C)c2nc3ccccc3n21 (stereo not given),inactive: 7.41%
14,CCOP(=O)(NC(=NC(C)c1ccccc1)NC(C)c1ccccc1)OCC (stereo not given),inactive: -23.1%
15,O=C(Cn1c(NCCO)nc2ccccc21)NCCc1ccc(F)cc1,inactive: 13.8%
16,CC(NC(=O)Cn1c(NCCO)nc2ccccc21)C1CC2CCC1C2 (stereo not given),inactive: 4.02%
17,CCN(CC)CCn1c(NCc2cccc(OC)c2)nc2ccccc21,inactive: -9.16%
18,O=C(Cn1c(-c2cscn2)nc2ccccc21)Nc1ccc2ccccc2c1,inactive: -13.8%
19,CCC1=CC2Cc3nc4ccc(Cl)cc4c(N)c3C(C1)C2 (stereo not given),inactive: 0.24%
20,Cn1c(=O)c2c(ncn2CC(=O)N2CCCc3ccccc32)n(C)c1=O,inactive: 21.1%
21,COc1cccc(CNC(=O)CCCCCNC(=O)N2CCn3c2nc2ccccc23)c1,inactive: -4.64%
